Columns and labels:
[1] = biological target: recombinant soluble tissue factor and recombinant human factor VIIa (TF-VIIa) (Homo sapiens, UniProt P08709); experiment: TF-VIIa Assay
Human factor Xa = Human factor Xa (Homo sapiens, UniProt P00742); experiment: Xa Assay

The chains behind the UniProt entries cited, without tags or fusion partners. Residues count along the entry.
UniProt P08709, 61-212 limits assumed: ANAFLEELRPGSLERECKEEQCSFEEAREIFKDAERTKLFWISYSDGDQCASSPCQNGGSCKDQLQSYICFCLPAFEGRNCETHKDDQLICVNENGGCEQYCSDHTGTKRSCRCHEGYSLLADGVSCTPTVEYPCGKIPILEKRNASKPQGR
UniProt P08709, 213-466 limits assumed: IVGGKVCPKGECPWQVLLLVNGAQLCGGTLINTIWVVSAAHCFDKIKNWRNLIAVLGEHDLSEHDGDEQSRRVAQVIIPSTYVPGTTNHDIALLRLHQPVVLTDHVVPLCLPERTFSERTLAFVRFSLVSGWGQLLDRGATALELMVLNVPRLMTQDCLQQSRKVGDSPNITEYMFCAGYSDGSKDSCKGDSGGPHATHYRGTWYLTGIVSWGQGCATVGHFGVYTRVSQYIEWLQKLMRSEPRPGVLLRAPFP
UniProt P00742, 41-179 limits assumed: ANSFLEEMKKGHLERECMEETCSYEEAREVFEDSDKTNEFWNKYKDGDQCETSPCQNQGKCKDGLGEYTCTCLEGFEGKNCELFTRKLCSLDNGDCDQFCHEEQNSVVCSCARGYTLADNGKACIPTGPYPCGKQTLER
UniProt P00742, 235-488 limits assumed: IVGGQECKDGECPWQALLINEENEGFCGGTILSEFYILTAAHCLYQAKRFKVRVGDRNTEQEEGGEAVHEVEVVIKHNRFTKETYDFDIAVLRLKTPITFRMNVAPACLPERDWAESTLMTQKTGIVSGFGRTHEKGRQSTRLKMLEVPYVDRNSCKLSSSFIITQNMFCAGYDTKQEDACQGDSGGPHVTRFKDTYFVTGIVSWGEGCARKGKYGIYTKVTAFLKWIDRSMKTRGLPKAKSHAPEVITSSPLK

% Inhibition Factor Xa (30 µM) (Human factor Xa; at 30 µM inhibitor) [%] | SMILES | % Inhibition TF-VIIa (100 µM) [1] [%] | % Inhibition Factor Xa (100 µM) (Human factor Xa) [%]
 | O=C(Cn1c(-c2ccc(-c3ccccc3)cc2)c(Cl)nc(NCCc2cccc(Cl)c2)c1=O)NCCc1ccncc1 [Example E-0051] | 0 | 
 | O=C(Cn1c(-c2ccc(-c3ccccc3)cc2)c(Cl)nc(NCCc2ccccc2)c1=O)NCCc1cccnc1 [Example E-0113] | 14 | 3
2 | CC(C)Nc1nc(Cl)c(-c2cc(N)cc(C(=O)O)c2)n(CC(=O)NCc2ccc(C(=N)N)cc2)c1=O [Example 123] |  | 
